The assay deals with β1 /β2. Kind of assay: Selectivity (ratio of β1/β2), ED50bpm vs. ED50 in anesthetized dogs. The class given is in vivo, Mongrel dogs.

Results on 1 compound are retold here after patent US3994974A, “α-Aminomethylbenzyl alcohol derivatives” (Yamanouchi Pharmaceutical Co., Ltd., priority 1972, dated 1976).

Counter-ions that a name gives are not always drawn.

For `COc1ccc(CC(C)NCC(O)c2ccc(O)c(NC=O)c2)cc1` (single isomer, unassigned) [Example 22, 3-formylamino-4-hydroxy-α-[N-(1-methyl-2-p-methoxyphenylethyl)aminomethyl]benzyl alcohol [A] . 1/2 fumarate], the Selectivity (ratio of β1/β2) turned out to be 18.9.
